From PubChem BioAssay AID624352 (Sanford-Burnham Center for Chemical Genomics, 2012) come the findings set out here.

For orientation: inhibition means the relative decrease from the control value, in per cent.

The entries are a selection whose mix differs from that of the whole data set. The source made the active and inactive calls.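 How the source made its calls: active means inhibition of the luminescence signal of 40% or more relative to plate controls, in a single-dose primary screen at 18.75 µM; inactive means the rest.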

The nature of this test: blockers of HIF-2a driven luciferase – luminescence, 786-0 RCC cells, primary screen (AID 624352). The note with it: 786-0 RCC cells HIF-2a reporter, overnight, at 18.8 µM, hits give high values.
Turning to `CS(=O)(=O)c1cc([N+](=O)[O-])c2no[n+]([O-])c2c1`, the inhibition was inactive: 11.4%.

Take `O=C(O)COc1ccc([As](=O)(O)O)cc1[N+](=O)[O-]`: the inhibition is inactive: 24.9%. Take `Nc1ccccc1[As](=O)(O)c1ccccc1`: the inhibition was inactive: 13.3%. In the case of `Cc1ccc(S(=O)(=O)N(CCCN)CCCc2c(C)nc(N)[nH]c2=O)cc1`, the inhibition was inactive: 6.09%. `O=P1(Nc2ncccn2)COc2ccccc2OC1`: the inhibition was inactive: 16.2%. For the compound `Nc1cccc([As](=O)(O)c2ccccc2)c1`, the inhibition is inactive: 15.5%. With `NS(=O)(=O)c1cccc(NC(=O)COC(=O)C(O)(c2ccccc2)c2ccccc2)c1` the figure was inactive: 11.3%; with `O=P1(Nc2ccc(Br)cn2)COc2ccccc2OC1`, inactive: 9.9%; with `Cc1ccc(OCC(=O)OC2CN3CCC2CC3)cc1` (centres undefined), inactive: 17.2%.

As to `O=[As](O)(c1cccs1)c1cccs1`, the inhibition is inactive: -0.747%. As for `Cc1ccc(C(=O)OC2CN3CCC2CC3)cc1` (centres undefined), the inhibition is inactive: 15.8%.

As for `CC1CCC(C(C)C)C(OP(=O)(Nc2ccccn2)c2ccccc2)C1` (centres undefined), the inhibition was inactive: 18.4%. As for `Cc1nn(-c2ccccc2)c2c1P(=O)(N1CCOCC1)N(C)C(c1ccccc1)=N2` (centres undefined), the inhibition was inactive: -4.45%. Take `CN(C)C1(CNC(=O)c2ccc(S(C)(=O)=O)cc2)CCCCC1`: the inhibition was inactive: 14%.

For `CCCC1OP(=O)(Nc2ccccc2)OCC1CC` (centres undefined), the inhibition is inactive: 12.9%. Take `O=C(/C=C/c1ccccc1)OC1CN2CCC1CC2` (centres undefined): the inhibition is inactive: -1.98%.

Regarding `COc1ccccc1CNC(=O)COC(=O)C(O)(c1ccccc1)c1ccccc1`, the inhibition is inactive: 13.9%. Take `CN(C(=O)Cc1ccc(Cl)c(Cl)c1)[C@@H]1CCCC[C@H]1N1CCCC1`: the inhibition was inactive: 0.74%. With `CC(C)/C=N\N=C(\N)N[N+](=O)[O-]`, the inhibition was inactive: 6.22%.

Turning to `CC1(CBr)Cn2c(nc3ccccc3c2=O)S1` (centres undefined), the inhibition is inactive: 23.8%. With `CCOP(=O)(NC(=NC(C)c1ccccc1)NC(C)c1ccccc1)OCC` (centres undefined) the figure was inactive: 7.89%.

For `CCC1=CC2Cc3nc4ccc(Cl)cc4c(N)c3C(C1)C2` (centres undefined), the inhibition is inactive: -3.21%.

As for `O=P1(Nc2ccccn2)COc2ccccc2OC1`, the inhibition is inactive: 14.8%. As to `CN(CCCl)Cc1cc(Cl)c(NC2=NCCN2)c(Cl)c1`, the inhibition was inactive: -4.98%. The same measure for `CCOP(=O)(Nc1ccc(C)cn1)OCC`: inactive: 9.87%; for `CC(C)(C)C(=O)NC(Sc1ncccn1)C(Cl)(Cl)Cl` (centres undefined): inactive: 12.3%. Consider `Clc1n[nH]nc1-c1nn[nH][15n]1`, for which the inhibition is inactive: 2%. `O=P1(N(CCCl)CCCl)NCCC(C(F)(F)F)O1` (centres undefined): the inhibition is inactive: 5.57%. With `O=P(Nc1nccs1)(c1ccccc1)c1ccccc1`, the inhibition was inactive: 12.1%.

For `CC(C)C(=O)NC(Sc1ccccc1)C(Cl)(Cl)Cl` (centres undefined), the inhibition is inactive: 6.37%. For `c1nnnn1CCn1cnnn1`, the inhibition is inactive: 16.2%. As to `O=[As](O)(c1ccccc1)c1ccc(O)cc1`, the inhibition is inactive: 10.5%.

Turning to `CC(=O)NC(SC(=S)N(C)C)C(Cl)(Cl)Cl` (centres undefined), the inhibition was inactive: 13.7%. In the case of `O=[N+]([O-])c1ncn(CCn2cnc([N+](=O)[O-])n2)n1`, the inhibition is inactive: 5.17%. As for `O=[N+]([O-])c1ccc(O)c(/C=N/Nc2ccc([N+](=O)[O-])cc2[N+](=O)[O-])c1`, the inhibition was inactive: -25.3%.

For `O=C(OC1CN2CCC1CC2)c1cccc(Cl)c1` (centres undefined), the inhibition was inactive: 6.58%. For the compound `Nc1ccc([As](=O)(O)c2ccc([N+](=O)[O-])cc2)cc1`, the inhibition is inactive: 16.1%. Consider `C(Cc1nn[nH]n1)Cc1nn[nH]n1`, for which the inhibition is inactive: 0.184%. Take `CN(C)C1(CNC(=O)c2ccc(Cl)c(S(N)(=O)=O)c2)CCCCC1`: the inhibition was inactive: 16.4%. Regarding `O=P(Nc1ccccn1)(c1ccc(Br)cc1)c1ccc(Br)cc1`, the inhibition was inactive: 12.8%. On to `Nc1ccc(CCCCOc2ccccc2)cc1`, for which the inhibition is inactive: -368%. With `COc1ccc(N)c([N+](=O)[O-])c1[N+](=O)[O-]` the figure was inactive: 1.68%; with `C[C@H]1OP(=O)(Oc2ccccc2)[C@H](O)[C@H](O)[C@H]1N=[N+]=[N-]` (some centres undefined), inactive: 9.6%; with `O=P(Nc1nc2ccccc2s1)(c1ccccc1)c1ccccc1`, inactive: -15.8%.

Consider `CCC(=O)N1C2C3N(C(=O)CC)C1C1N(C(=O)CC)C(C(N1C(=O)CC)N3C(=O)CC)N2C(=O)CC`, for which the inhibition is inactive: 23.5%.

With `O=C(OC1CN2CCC1CC2)c1ccccc1` (centres undefined), the inhibition was inactive: 4.91%.

For `CC(=O)NC(SC(=S)N(CC(C)C)CC(C)C)C(Cl)(Cl)Cl` (centres undefined), the inhibition was inactive: -0.399%. With `Cc1ccc(OP(=O)(Nc2ccccn2)Oc2ccc(C)cc2)cc1` the figure was inactive: 23.8%; with `COC(=O)c1cc2c(s1)N=C(c1ccccc1)N(C)P2(=O)N1CCOCC1` (centres undefined), inactive: 16.8%; with `CN(C)C(=O)Oc1noc2ccccc12`, inactive: -1.67%. Regarding `O=c1c2cc([N+](=O)[O-])ccc2[nH]c2c([N+](=O)[O-])cc([N+](=O)[O-])cc12`, the inhibition was inactive: 20.7%. With `Cc1ccccc1OP(=O)(Nc1ccccn1)Oc1ccccc1C` the figure was inactive: 13%. Turning to `CC(NC(=O)COC(=O)C(O)(c1ccccc1)c1ccccc1)c1ccccc1` (centres undefined), the inhibition is inactive: 7.15%. With `Cc1ccc(NP(=O)(Oc2cccc(C)c2)Oc2cccc(C)c2)nc1`, the inhibition is inactive: 20.3%.

With `c1ccc(-c2nn[nH]n2)c(-c2nn[nH]n2)c1`, the inhibition was inactive: 21.8%.

Turning to `O=C(NC1CCS(=O)(=O)C1)NP(=S)(Oc1ccccc1)Oc1ccccc1` (centres undefined), the inhibition is inactive: -14.5%. Consider `CCNC(=S)/N=C(\N)N[N+](=O)[O-]`, for which the inhibition was inactive: 11.3%.

As to `O=P1(N(CCCl)CCCl)OCCC2CCCCN21` (centres undefined), the inhibition is inactive: 12.1%. On to `C[C@@H]1C=CCP(=O)(Oc2ccccc2)O1` (some centres undefined), for which the inhibition is inactive: 11.5%.

Turning to `C[C@H]1OP(=O)(Oc2ccccc2)C[C@@H]2O[C@@H]21` (some centres undefined), the inhibition is inactive: 12.4%. Take `Cc1ccccc1CN(C)C(=O)COC(=O)C(O)(c1ccccc1)c1ccccc1`: the inhibition was inactive: 9.04%.

Take `COC(=O)C1(C)COP(=O)(NCc2ccccc2)OC1` (centres undefined): the inhibition was inactive: 12.1%. Consider `N#C/C(=C\c1ccc(N(CCBr)CCBr)cc1)C(N)=O`, for which the inhibition was inactive: -20.4%. In the case of `CC(=O)c1ccc(N2CC2c2ccncc2)cc1` (centres undefined), the inhibition is inactive: 16.3%. Regarding `CC(=O)Nc1ccc(Oc2c([N+](=O)[O-])cc([N+](=O)[O-])cc2[N+](=O)[O-])cc1`, the inhibition was inactive: 16.1%. With `CC(=O)Nc1ccc([As](=O)(O)O)c(O)c1` the figure was inactive: 22%; with `CCOc1ccc(C2=NCC(CBr)S2)cc1` (centres undefined), inactive: 4.23%; with `O=P1(Nc2nc3ccc(Cl)cc3s2)COc2ccccc2O1` (centres undefined), inactive: -56.6%. Consider `CC(C)(C)C(=O)NC(Sc1ccccc1)C(Cl)(Cl)Cl` (centres undefined), for which the inhibition is inactive: 22.8%. For the compound `CCc1cc(O)c([N+](=O)[O-])c(C)c1[N+](=O)[O-]`, the inhibition is inactive: 4.26%.

As to `O=C(NC(Sc1ccncn1)C(Cl)(Cl)Cl)c1ccccc1` (centres undefined), the inhibition is inactive: 17.5%. In the case of `Oc1ccccc1CNc1ccccn1`, the inhibition was inactive: -19.9%. As to `CC(C)CC(=O)NC(Sc1ccc(Cl)cc1)C(Cl)(Cl)Cl` (centres undefined), the inhibition is inactive: 9.99%.

For the compound `Nc1cc(N)c2nonc2c1[N+](=O)[O-]`, the inhibition is inactive: 5.86%.

For the compound `O=[N+]([O-])C1C(O)C(O)C([N+](=O)[O-])C(O)C1O` (centres undefined), the inhibition was inactive: 12.2%. For the compound `Cc1ccc(N/C(=N/P(=O)(N2CCOCC2)N2CCOCC2)N2CCOCC2)cc1`, the inhibition is inactive: 2.93%. In the case of `CN(C(=O)Cc1ccc(Cl)c(Cl)c1)[C@H]1CCCC[C@H]1N1CCCC1`, the inhibition is inactive: 4.18%. Turning to `NC(=O)c1cc([N+](=O)[O-])cc([N+](=O)[O-])c1N`, the inhibition was inactive: 14.6%.

For the compound `Clc1ccc(Cl)c(NC2=NCC(CBr)S2)c1` (centres undefined), the inhibition was inactive: -0.843%.

In the case of `CN1CCCC(OC(=O)C(c2ccccc2)c2ccccc2)C1` (centres undefined), the inhibition is inactive: 8.05%. Regarding `Cc1ccc(OP(=O)(Nc2nccs2)Oc2ccc(C)cc2)cc1`, the inhibition was inactive: 5.08%. Take `COc1ccccc1OP(=O)(Nc1ccc(C)cn1)Oc1ccccc1OC`: the inhibition is inactive: 5.45%. `Nc1cccc2ccc([As](=O)(O)O)cc12`: the inhibition was inactive: 5.17%. For `CCN(N=Nc1nonc1N)c1nonc1N`, the inhibition was inactive: 31.3%. On to `CN(C)P(=O)(N(C)C)n1c(Nc2ccccc2)nnc1-c1ccccc1`, for which the inhibition was inactive: -58.4%. In the case of `O=P(Nc1nc2ccc(Cl)cc2s1)(c1ccccc1)c1ccccc1`, the inhibition was inactive: 7.96%. `CCCC1OP(N)(=O)OCC1CC` (centres undefined): the inhibition is inactive: 8.97%.

Take `O=C(O)c1ccccc1[As](=O)(O)O`: the inhibition is inactive: 13.3%.

Take `CC(=O)Nc1ccc([As](=O)(O)O)cc1`: the inhibition was inactive: 9.38%.

For `CN(C(=O)Cc1ccc(Cl)c(Cl)c1)[C@H]1CCCC[C@@H]1N1CCCC1`, the inhibition was inactive: 1.49%. Regarding `Cc1ccc(NP(=O)(Oc2ccccc2F)Oc2ccccc2F)nc1`, the inhibition is inactive: 5.72%.

Take `CCOP(=O)(Nc1ccccc1)OCC`: the inhibition is inactive: 9.15%. Turning to `Cc1cc(SC(NC(=O)c2ccc(F)cc2)C(Cl)(Cl)Cl)ncn1` (centres undefined), the inhibition is inactive: 9.84%. `O=[N+]([O-])c1ncn(CCn2ncnc2[N+](=O)[O-])n1`: the inhibition was inactive: -1.67%. Consider `CC(C)(C)C(=O)NC(Sc1ccncn1)C(Cl)(Cl)Cl` (centres undefined), for which the inhibition is inactive: 3.15%. In the case of `O=C(O)CNc1ccc([As](=O)(O)O)cc1`, the inhibition is inactive: 19%. With `O=[N+]([O-])c1cccc(NC2=NCC(CBr)S2)c1` (centres undefined) the figure was inactive: 5.2%.

Turning to `COC(=O)C1(C)COP(=O)(Nc2ccccc2)OC1` (centres undefined), the inhibition was inactive: 6.08%. In the case of `O=P1(N(CCCl)CCCl)OCCCS1` (centres undefined), the inhibition is inactive: 8.32%. In the case of `O=C(Nc1cc([As](=O)(O)O)ccc1O)c1ccccc1`, the inhibition is inactive: 4.88%. As for `CCN(/C(=N/P(=O)(N1CCOCC1)N1CCOCC1)N1CCOCC1)c1ccc(OC)cc1`, the inhibition is inactive: 12.7%. Take `C[N+]1=C2C=CC=CC=C2SC12C([N+](=O)[O-])=CC([N+](=O)[O-])=C[C-]2[N+](=O)[O-]` (centres undefined): the inhibition is inactive: -13.5%. Consider `Nc1ccc([As](=O)(O)c2ccc(N)cc2)cc1`, for which the inhibition was inactive: 7.99%. In the case of `c1cc(-c2nn[nH]n2)ccc1-c1nn[nH]n1`, the inhibition is inactive: 16.7%.

With `CC1CCN(C(=O)Oc2c(Cl)cc(Cl)c3cccnc23)CC1`, the inhibition was inactive: -44.5%. For the compound `CN(C)C(=O)OCCc1n(C)cc[n+]1C`, the inhibition was inactive: 6.9%.

Turning to `CC(C)=N/N=C(\N)N[N+](=O)[O-]`, the inhibition is inactive: 13.1%. With `CC(C)c1nc(Nc2ccccc2)n(P(=O)(N(C)C)N(C)C)n1` the figure was inactive: 4.47%; with `COc1ccc(C2=NCC(CBr)S2)cc1` (centres undefined), inactive: 14.5%. With `O=[N+]([O-])c1cc([N+](=O)[O-])c(CCNc2ccccc2)c([N+](=O)[O-])c1` the figure was inactive: -12.6%; with `CCc1nc2c(n1)c1c(non1O)c1c2no[n+]1[O-]`, inactive: 36.6%. The same measure for `Cc1ccc(NP(=O)(Oc2ccccc2)Oc2ccccc2)nc1`: inactive: 10.5%; for `CC(=O)N1C2C3N(C(C)=O)C1C1N(C(C)=O)C(C(N1C(C)=O)N3C(C)=O)N2C(C)=O`: inactive: 7.15%. Regarding `O=[N+]([O-])c1cccc2n[nH]nc12`, the inhibition is inactive: 12.8%.
